Data on 5 variants can be found in article PMC11032447.

For orientation: Kd means the concentration at which binding is half-saturated.

First the molecules themselves.
B1: mouse secretagogin [mouse] / C-terminal SNARE domain of mouse SNAP-25 [mouse] (parent)
chain 1: MDNARRKTPARLDAACFWQIWQRFDKEEKGYIRETELDAFFDHLLAKSGTEDTLMEENVQKVKEQLMTSHNVSKEGRILMKELASMFLSEDENFLLFFRLETPLDNSVEFMQIWRKYDADSSGFISAAELCNFLRDLFLHHKKNISEAELEEYTSTMMKIFDKNKDGRLDLNDLARILALQENFLLQFKMDASSTEERKRDFEKIFAHYDVSKTGALEGPEVDGFVKDMMELVQPSISGVDLDKFREILLRHCDVNKDGKIQKSELALCLGLKINP
chain 2: DARENEMDENLEQVSGIIGNLRHMALDMGNEIDTQNRQIDRIMEKADSNKTRIDEANQRATKMLGSG

This experiment covers variants of B1. In words: ITC. The conditions noted are these: with C-terminal SNARE domain of mouse SNAP-25 [mouse].

In the case of chain 1 M229E, the Kd came to 0.201 µM and the ratio to parent was determined as 9.18.
Regarding chain 1 M229A, the Kd was 0.0358 µM and the ratio to parent stood at 1.63.
Turning to chain 1 V233A, the Kd stood at 0.0273 µM and the ratio to parent came out at 1.25.
Regarding chain 1 R198A, the Kd stood at 0.738 µM and the ratio to parent turned out to be 33.7.
In the same order, the values of chain 1 L270A are 0.0426 µM and 1.95.
